Test results taken from patent US7767666B2, “Butyl and butynyl benzyl amine compounds” (Janssen Pharmaceutica NV, priority 2006, dated 2010).

Chains of the proteins cited; added tags and fusions are not shown. Lines headed by an entry give the natural chain unless they say otherwise; changes in a name come on top.
UniProt Q9Y5N1: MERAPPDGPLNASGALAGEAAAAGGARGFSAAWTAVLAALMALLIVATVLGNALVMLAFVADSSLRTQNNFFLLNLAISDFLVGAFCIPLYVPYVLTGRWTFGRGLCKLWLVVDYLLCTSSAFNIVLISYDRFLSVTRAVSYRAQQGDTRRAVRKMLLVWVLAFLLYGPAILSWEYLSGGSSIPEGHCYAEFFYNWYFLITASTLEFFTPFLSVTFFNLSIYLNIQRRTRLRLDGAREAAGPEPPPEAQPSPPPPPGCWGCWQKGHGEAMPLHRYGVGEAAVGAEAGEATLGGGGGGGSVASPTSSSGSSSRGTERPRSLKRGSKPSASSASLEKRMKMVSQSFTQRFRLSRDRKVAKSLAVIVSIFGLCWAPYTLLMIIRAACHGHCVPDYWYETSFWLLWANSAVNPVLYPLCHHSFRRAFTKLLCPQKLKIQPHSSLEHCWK

Experiments:
human H3 receptor [1] = target: T1, human H3 receptor (Homo sapiens, UniProt Q9Y5N1); assay: H3 receptor binding; conditions: cloned human H3 receptor stably expressed in SK-N-MC cells
T1 construct: expressed in transfected cells

human H3 receptor [2] = target: T1, human H3 receptor; assay: Cyclic AMP accumulation (β-galactosidase reporter); type: cell-based; conditions: SK-N-MC cells expressing human H3 receptor and reporter; histamine agonist, forskolin 5 μM; Schild regression of pEC50 values
Experimental: Sublines of SK—N-MC cells were created that expressed a reporter construct and the human H3 receptor. The reporter gene (β-galactosidase) is under the control of multiple cyclic AMP responsive elements. In 96-well plates, histamine was added directly to the cell media followed 5 min later by an addition of forskolin (5 μM final concentration). When appropriate, antagonists were added 10 min prior to agonist addition. After a 6-h incubation at 37° C., the media was aspirated and the cells washed with 200 μL of phosphate-buffered saline followed by a second aspiration. Cells were lysed with 25 μL 0.1× assay buffer (10 mM Na-phosphate, pH 8, 0.2 mM MgSO4, 0.01 mM MnCl2) and incubated at rt for 10 min. Cells were then incubated for 10 min with 100 μL of 1× assay buffer containing 0.5% Triton and 40 mM β-mercaptoethanol. Color was developed using 25 μL of 1 mg/mL substrate solution (chlorophenolred β-D galactopyranoside; Roche Molecular Biochemicals, Indianapolis, Ind.).

In the case of `CNCc1cc(C#CCCN2CCOCC2)ccc1Oc1ccccc1` [Example 6, Methyl-[5-(4-morpholin-4-yl-but-1-ynyl)-2-phenoxy-benzyl]-amine], the Ki (human H3 receptor [1]) is reported as 5.7 nM and the pA2 (human H3 receptor [2]) is reported as 8.14.
